According to EP0565593B1, “REDUCING PESTICIDAL INTERACTIONS IN CROPS” (priority 1990, dated 1992):

Tested on: Corn

Row | Compound | effect on corn before application of the herbicide (Examples 8-11, biocides and safeners PPI) | antidote activity (COUNTER with BEACON, PURSUIT (POE) or XRD-498 (PPI), Tables 29-37)
1 | CCOP(=S)(CC)Sc1ccccc1 (centres unmarked) | slight early stunting and leaf malformation | –
2 | 5-Oxazolecarboxylic acid, 2-<(2,2-dimethylethyl)amino>-4-(trifluoro-methyl)-, ethyl ester | – | active safeners
